## Properties, as collected for the OPERA models

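OPERA's authors assembled the values from existing databases and did not measure them anew. The files give a single number for a compound and property, which may rest on several reports. How each value was measured is not recorded, so precision varies. The measured form (salt, isomer or mixture) is not always the one drawn. Some entries may be limits or estimates that an upstream database listed as plain numbers.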

The melting point is given in degrees Celsius.
The boiling point refers to atmospheric pressure (760 mmHg), by the definition of the set.
The octanol-water partition coefficient is given as log10; larger values mean a more lipophilic compound.
Solubility in water is on a log10 molar scale (set defined at 25 °C).
Vapor pressure is log10 of mmHg; the set covers 15 to 30 °C, mostly 20 to 25 °C.
Henry's law constant (air-water partitioning) is log10 of atm·m3/mol, nominally at 25 °C.
The unbound fraction in human plasma runs from 0 (all bound) to 1 (all free).
Intrinsic clearance (human, µL/min per 10^6 hepatocytes): higher is faster turnover, and 0 stands for none detected.

{"smiles": "N#CCCSCCC#N", "water solubility (log10 mol/L)": "-0.749", "vapor pressure (log10 mmHg)": "-4.262"}
{"smiles": "O=S(=O)([O-])C(F)(F)C(F)(F)C(F)(F)C(F)(F)C(F)(F)C(F)(F)F.[K+]", "fu": "0.001342", "Clint (µL/min/10^6 cells)": "0"}
{"smiles": "CN(C)C(=O)Nc1cccc(C(F)(F)F)c1", "fu": "0.2592", "Clint (µL/min/10^6 cells)": "10.06"}
{"smiles": "C#CCN1C(=O)COc2cc(F)c(N3C(=O)C4=C(CCCC4)C3=O)cc21", "fu": "0.02835", "Clint (µL/min/10^6 cells)": "8.34"}
{"smiles": "CNC(=O)Oc1cccc2c1OC(C)(C)C2O", "stereo": "configuration not stated", "water solubility (log10 mol/L)": "-1.58", "vapor pressure (log10 mmHg)": "-6.298", "log H (log10 atm·m3/mol)": "-8.298"}
{"smiles": "Brc1ccc(Oc2ccc(Br)cc2Br)c(Br)c1", "MP (°C)": "83.05", "water solubility (log10 mol/L)": "-7.513"}
{"smiles": "CC(C)N(Cc1ccccc1)C(=O)C(C)(C)C", "log H (log10 atm·m3/mol)": "-6.83", "fu": "0.2267", "Clint (µL/min/10^6 cells)": "9.846"}
{"smiles": "CCOP(=S)(Oc1cnc(C(C)(C)C)nc1)OC(C)C", "stereo": "configuration not stated", "bp (°C)": "152", "logP": "4.2", "log H (log10 atm·m3/mol)": "-5.545", "Clint (µL/min/10^6 cells)": "22.64"}
{"smiles": "COC(=O)c1ccccc1C(=O)OC", "fu": "0.6567", "Clint (µL/min/10^6 cells)": "22.26"}
{"smiles": "CCNc1nc(NCC)nc(SC)n1", "water solubility (log10 mol/L)": "-2.68", "vapor pressure (log10 mmHg)": "-6.149"}
{"smiles": "C[C@]12CC[C@@H]3C4=C(CC[C@H]3[C@@H]1CCC2=O)CC(=O)CC4", "logP": "2.8", "water solubility (log10 mol/L)": "-4.064"}
{"smiles": "Cc1c([N+](=O)[O-])cc2c(c1[N+](=O)[O-])C(C)(C)CC2(C)C", "logP": "4.4", "water solubility (log10 mol/L)": "-6.782"}
{"smiles": "CC(C)(c1ccc(OC#N)cc1)c1ccc(OC#N)cc1", "logP": "3.57", "vapor pressure (log10 mmHg)": "-7.322"}
{"smiles": "CC(C)(C1CCC(O)CC1)C1CCC(O)CC1", "stereo": "configuration not stated", "logP": "2.35", "water solubility (log10 mol/L)": "-3.098", "vapor pressure (log10 mmHg)": "-5.18"}
{"smiles": "Cl.N=C(Nc1ccccc1)Nc1ccccc1", "logP": "-1.77", "vapor pressure (log10 mmHg)": "-7.785"}
{"smiles": "COCc1cnc(C2=NC(C)(C(C)C)C(=O)N2)c(C(=O)O)c1", "stereo": "configuration not stated", "vapor pressure (log10 mmHg)": "-7.001", "fu": "0.4541", "Clint (µL/min/10^6 cells)": "0"}
{"smiles": "CC(Cc1ccc(C(C)(C)C)cc1)CN1CCCCC1", "stereo": "configuration not stated", "water solubility (log10 mol/L)": "-2.71", "log H (log10 atm·m3/mol)": "-3.976"}
{"smiles": "CC(=O)C1(Cl)CC1", "MP (°C)": "-30.3", "logP": "1.3", "vapor pressure (log10 mmHg)": "1.195"}
{"smiles": "OCCCC(F)(F)C(F)(F)F", "logP": "1.59", "vapor pressure (log10 mmHg)": "-0.084"}
{"smiles": "CCOP(=S)(OCC)SCn1c(=O)oc2ccccc21", "MP (°C)": "43", "water solubility (log10 mol/L)": "-5.19"}
{"smiles": "CC(C)(C)C(=O)Cl", "logP": "0.945", "vapor pressure (log10 mmHg)": "1.462"}
{"smiles": "CON=C(C(=O)OC)c1ccccc1CON=C(C)c1cccc(C(F)(F)F)c1", "water solubility (log10 mol/L)": "-5.83", "fu": "0.0072"}

The first 2 entries again:

{"smiles": "N#CCCSCCC#N", "water solubility (log10 mol/L)": "-0.749", "vapor pressure (log10 mmHg)": "-4.262"}
{"smiles": "O=S(=O)([O-])C(F)(F)C(F)(F)C(F)(F)C(F)(F)C(F)(F)C(F)(F)F.[K+]", "fu": "0.001342", "Clint (µL/min/10^6 cells)": "0"}

Values as listed in the OPERA 2.9 repository of K. Mansouri.